Reference: PMC1964878

How the values were obtained:
O=C(O)[C@@H]1CCCN1 = experiment: purified protein; conditions: 0.2 M NaOAc pH 6, 37 C, 10-160 mM substrate, PLP-independent
O=C(O)[C@H]1CCCN1 = experiment: purified protein; conditions: 0.2 M NaOAc pH 6, 37 C, 10-160 mM substrate, PLP-independent

Work on CdPRAC (Clostridioides difficile) yielded a Km (O=C(O)[C@@H]1CCCN1) of 60.2 mM and a Km (O=C(O)[C@H]1CCCN1) of 46.7 mM.
